Reference: ChEMBL document CHEMBL1212803, “Resistance-associated mutations to etravirine (TMC-125) in antiretroviral-naïve patients infected with non-B HIV-1 subtypes” (2010)

Test system: Human immunodeficiency virus 1
Assay: Antiviral activity against HIV-1 subtype CRF02_AG containing reverse transcriptase E138A/K32R, V35E, T39S, S48T, V60I, D121Y, K122E, I135T, S162A, K173A, Q174K, D177E, V179I, T200E, Q207D, R211K mutant relative to control
Type: functional

O=C1Nc2ccc(Cl)cc2[C@@](C#CC2CC2)(C(F)(F)F)O1 [EFAVIRENZ]
Ratio IC50: 2.9
